Experimental data: PubChem BioAssay AID1347417 (National Center for Advancing Translational Sciences (NCATS), 2020)
This is a selection; strong and weak results do not stand in their true shares. Some results for these compounds are left out of this collection, so the calls shown say nothing about other tests. Records with an inconclusive call do not appear. Active and inactive are the calls of the source. Calls follow the shape of the dose curve; as a rule, active = well fitted inhibition curve with a large enough effect; inconclusive = small, poorly fitted or top-dose-only effect; inactive = no such curve, though single readings can be large or run the other way.

assay: qHTS Primary assay for Inhibitors of Plasmodium falciparum Dd2 growth in vitro;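 also: plate controls were DMSO vehicle for no effect and reference drug for full effect; nearly all actives have a fitted effect of over 65% in size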; conditions: P. falciparum Dd2 growth, SYBR Green, 72 h; at 28.9 µM (top of the series)
Excerpt: Malaria, a parasitic disease spread to humans through the bite of a Plasmodium infected Anopheles mosquito, continues to be a global health burden affecting millions of people, with an estimated 228 million cases and 405,000 deaths in 2018. Concerns about safety and limitations of current antimalarial treatments strongly emphasize the need to develop new therapeutic options. The scarce number of chemotypes and validated drug targets with efficacy against the liver stage, have hindered development of new antimalarials. To address this, a chemoprophylactic drug discovery effort was conducted through a combined phenotypic high-throughput asexual blood stage and liver stage screen, providing a robust foundation to identify liver-stage active lead chemotypes. Compounds were initially screened against Plasmodium falciparum Dd2 strain parasites using a in vitro SYBRGreen-1 based 72 hr proliferation assay to identify novel chemotypes to advance to liver stage assays. NIH/NCATS Early Translation Branch Assay Submitter (PI): Anton Simeonov Ph.D.
Malaria-vivax Assay Protocol: PROTOCOL TABLE (as described by Inglese et al., 2007) SEQUENCE No. (e.g., 1, 2, 3, etc.); […] (e.g., Cells, Incubation, Reagent, etc.); VALUE; DESCRIPTION SEQUENCE, Parameter, Description 1; Reagent; 3 uL complete malaria growth medium, 1536 TC treated Black clear bottom plate 2; Controls; 23 nL positive control artesunate (300 nM final) to column 1; Neutral control DMSO to columns 2-4 3; Compound; 23 nL of compounds in dose response concentration (29 uM to 0.5 nM final) 4; Reagent; 5 uL malaria infected red blood cells (2.5% hematocrit final, 0.3% parasitemia 5; Time; 72 hours at 37C (5% O2, 5% CO2, 90% N2; 95% Rh) 6; Reagent; 2 uL lysis buffer/SYBRGreen-1, 25 sec shake immediately following dispense 7; Time; ~16 hours at 37C (5% O2, 5% CO2, 90% N2; 95% Rh) 8; Detector; EnVision (PerkinElmer) bottom read at 485/14nm excitation and 535/25 nm emission NOTES (numbers refer to sequence above): 1; Complete Malaria Growth Media: 1X RPMI-1640 w/L-glutamine, 5.5g/L Albumax II, 367 uM Hypoxanthine, 25 mM HEPES, 0.25% Sodium Bicarbonate, 35 uM Gentamicin sulfate 2; Controls were added using the Kalypsis Pintool (Wako USA) equipped with 1536 pinhead 3; Compounds were added in a 7-point, titration with a high final concentration of 29 uM by Pintool from seven inter-plate titrations of library plates and two DMSO control plates at the beginning and end (see Yasgar et al., 2008). 4; Red blood cells infected with Plasmodium falciparum Dd2 parasites were used. 6; Lysis buffer: 20 mM Tris-HCl, 10 mM EDTA, 0.16% Saponin, 1.6% Triton-X, 10X SYBR Green. REFERENCE: Inglese J, Shamu CE, Guy RK. 2007. Reporting data from high-throughput screening of small-molecule libraries. Nat Chem Biol. doi:10.1038/nchembio0807-438 Yasgar A, Shinn P, Jadhav A, Auld D, Michael S, Zheng W, Austin CP, Inglese J, Simeonov A. 2008. Compound Management for Quantitative High-Throughput Screening. J Lab Autom 13:79-89. doi:10.1016/j.jala.2007.12.004

SMILES	activity, negative = inhibition
CN(C)C1(CNC(=O)c2ccccc2[N+](=O)[O-])CCCCC1	inactive: -4.51%
CN(C)C1(CNC(=O)c2ccccc2F)CCCCC1	inactive: -23.9%
CN(C)C1(CNC(=O)c2cccc(Cl)c2)CCCCC1	inactive: -10.1%
CC(C)COc1ccc(C(=O)NCC2(N(C)C)CCCCC2)cc1	inactive: -30%
CC(C)Oc1ccc(C(=O)NCC2(N(C)C)CCCCC2)cc1	inactive: 5.42%
COc1cc(C(=O)NCC2(N(C)C)CCCCC2)cc(OC)c1OC	inactive: -13.8%
Cc1cccc(C(=O)NCC2(N(C)C)CCCCC2)c1	inactive: -10%
COc1ccc(C(=O)NCC2(N(C)C)CCCCC2)cc1Cl	inactive: -7.05%
